Test system: catalepsy
Assay: Catalepsy bar test
Details: result in words; tested form: HCl

For `OC1(c2ccc(Cl)cc2)CC2CCC(C1)N2CCCSc1cccc(F)c1` (stereo not shown), which catalepsy in rats is on record?
The catalepsy in rats was “demonstrates catalepsy”.
